A word on the IC50: it is the midpoint of a concentration-inhibition curve.

The target of this test is T1, WT HIV-1 RT (Human immunodeficiency virus type 1 group M subtype B, UniProt P03366).
T1 construct: Recombinant wild type p66/p51 HIV-1 RT; made in house
Put plainly: Reverse transcriptase assay (EnzCheck kit, PicoGreen). To be noted: recombinant wild type p66/p51 HIV-1 RT. Type of test: biochemical.

As to `Cc1cc(C#N)cc(C)c1Oc1nc(Nc2ccc(C#N)cc2)nc(N)c1Br` [Etravirine, etravirine, reference compound], the IC50 came to 0.01 ± 0.009 µM.

These data come from PMC7180830, “Scaffold Hopping in Discovery of HIV-1 Non-Nucleoside Reverse Transcriptase Inhibitors: From CH(CN)-DABOs to CH(CN)-DAPYs” (Molecules, 2020).
